The values that follow come from article PMC7751304 (Journal of chemical information and modeling, 2019).

The series deals with low-efflux MDCK cell line. As to the kind of experiment: MDCK cell permeability. In kind it is in vitro ADME, canine. The settings on record: permeability class (low/medium/high) from MDCK Papp.

As to `CC(C)C[C@@H]1NC(=O)[C@@H](CC(C)C)NC(=O)[C@@H](CC(C)C)NC(=O)[C@H]2CCCN2C(=O)[C@H](Cc2ccc(O)cc2)NC(=O)[C@@H](CC(C)C)NC1=O` [compound 7], the “MDCK Class” value is given as “high”.
In the case of `CC(C)C[C@@H]1NC(=O)[C@H](CC(C)C)NC(=O)[C@@H](CC(C)C)NC(=O)[C@@H](CC(C)C)NC(=O)[C@H]2CCCN2C(=O)[C@H](Cc2ccc(O)cc2)NC1=O` [compound 5] it was “medium”; in that of `CC(C)C[C@@H]1NC(=O)[C@H](CC(C)C)NC(=O)[C@@H](CC(C)C)NC(=O)[C@H]2CCCN2C(=O)[C@H](Cc2ccc(O)cc2)NC(=O)[C@@H](CC(C)C)NC1=O` [compound 8], “high”; in that of `CC(C)C[C@@H]1NC(=O)[C@H](CC(C)C)NC(=O)[C@@H](CC(C)C)NC(=O)[C@H]2CCCN2C(=O)[C@H](Cc2ccc(O)cc2)NC(=O)[C@H](CC(C)C)NC1=O` [compound 6], “medium”.
To `CC(C)C[C@@H]1NC(=O)[C@@H](CC(C)C)NC(=O)[C@H]2CCCN2C(=O)[C@H](Cc2ccc(O)cc2)NC(=O)[C@@H](CC(C)C)NC(=O)[C@@H](CC(C)C)NC1=O` [compound 4] belongs “medium”.
